IC50 data for one molecule are collected here from US5545647A, “3-phenylpyrrolidine derivatives” (Mitsubishi Chemical Corporation, priority 1994, dated 1996).

Molecules are shown by their SMILES. pIC50: −log10 of the molar value.

In this assay the test system is Phosphodiesterase (PDE) IV. In words: Action to Phosphodiesterase (PDE) IV Enzyme Activities (3H-cAMP hydrolysis, enzyme from U-937 cells). It counts as biochemical. Conditions: read-out: PDE IV inhibitory activity IC50; human histiocytic lymphoma (U-937) cytoplasm fraction enzyme; 0.4 μM 3H-cAMP; pH 8.0; 15 minutes at 30° C. As for the experimental part: Action to Phosphodiesterase (PDE) IV Enzyme Activities
Enzyme was partialy purified from human histiocytic lymphoma(U-937) cytoplasm fraction by means of the Q-sepharose column according to the method of Nicholson and collaborators [Br. J. Pharmacol., 97, 889 (1989)], and was reacted in a solution of 0.1 mg/ml BSA (bovine serum albumin), 1 mM EDTA (ethylenediaminetetra acetic acid), 5 mM MgCl2 and 50 mM Tris-buffer (pH 8.0) for 15 minutes at 30° C. using 0.4 μM ^3 H-cAMP as substrate according to the method of Hidaka and collaborators [Biochem. Med., 10, 301 (1974)]. ^3 H-5'-AMP generated was separated by means of the cation exchange column, and the enzyme activity was determined by measuring a radioactivity amount.
A test compound was added. After incubation for 15 minutes at 30° C., the substrate was added. Inhibition ratios were derived for respective concentrations assuming that the reaction without the test compound was 100%. By using the probit analysis, the concentration (IC50) showing the inhibition rate of 50% was derived.

A word on the pIC50: it is the IC50 on a negative log10 scale, so that one unit is a factor of ten.

For the molecule `COc1ccc(C2CCN(C(=O)Oc3cccnc3)C2)cc1OC1CCCC1` (stereo not shown), the pIC50 was 7.85.
